Several values for one entry are separate records, joined by “and”; a condition that tells them apart may be missing. Identical values can stand only once.
biological target: T1, Nuclear receptor ROR-gamma [258-518,Y502F] (Human, UniProt P51449, Y502F); assay: RORγt Reporter Assay
T1 construct: 258-518

The chains behind the UniProt entries cited, without tags or fusion partners. Residues count along the entry.
UniProt P51449, 258-518 Y502F: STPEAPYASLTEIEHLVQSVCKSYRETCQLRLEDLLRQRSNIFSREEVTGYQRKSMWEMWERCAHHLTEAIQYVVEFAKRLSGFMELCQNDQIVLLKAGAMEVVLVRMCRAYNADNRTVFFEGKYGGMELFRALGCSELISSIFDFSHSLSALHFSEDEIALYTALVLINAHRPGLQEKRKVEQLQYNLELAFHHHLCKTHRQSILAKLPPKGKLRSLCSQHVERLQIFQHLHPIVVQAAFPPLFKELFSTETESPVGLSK

IC50	SMILES
120 nM and 66 nM	Cn1cncc1C(O)(c1ccc(Cl)cc1)c1ccc2nc(N3CCC3)c(Oc3ccc(C#N)cc3)c(Cl)c2c1 (single isomer, unassigned) [US9303015, 32a]
150 nM	COc1ccc(C(O)(c2ccc3nc(N(C)C)c(Oc4ccccc4)c(Cl)c3c2)c2cncn2C)cn1 (stereo not drawn) [US9303015, 17]
72 nM	Cn1cncc1C(O)(c1ccc(Cl)cc1)c1ccc2nc(N3CCC3)c(Oc3ccc(C#N)cc3)c(Cl)c2c1 (stereo not drawn) [US9303015, 32a]

Source: BindingDB's records for patent US9303015 (Janssen Pharmaceutica NV, 2016)
